Source: ChEMBL document CHEMBL5360615, “Pharmacological and Physicochemical Properties Optimization for Dual-Target Dopamine D3 (D3R) and μ-Opioid (MOR) Receptor Ligands as Potentially Safer Analgesics” (J Med Chem, 2023)
pEC50: −log10 of the molar value. Calls of active or inactive are those of the source. The calls are words filed in the database; no cut-off is given here.

Protein sequences, listed by entry. Tags and fused reporters are not part of them.
UniProt P42866, whole entry: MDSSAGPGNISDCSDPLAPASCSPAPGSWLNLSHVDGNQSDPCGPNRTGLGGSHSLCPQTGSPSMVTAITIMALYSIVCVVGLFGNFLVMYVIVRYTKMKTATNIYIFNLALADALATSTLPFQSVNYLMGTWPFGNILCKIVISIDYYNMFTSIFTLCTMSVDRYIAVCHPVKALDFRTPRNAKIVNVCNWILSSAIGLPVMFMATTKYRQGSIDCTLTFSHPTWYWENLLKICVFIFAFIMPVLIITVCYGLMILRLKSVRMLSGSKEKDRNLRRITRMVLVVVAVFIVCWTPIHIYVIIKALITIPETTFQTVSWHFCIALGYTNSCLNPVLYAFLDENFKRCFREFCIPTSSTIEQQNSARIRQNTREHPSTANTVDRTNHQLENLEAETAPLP

Tests used:
Type in all cases: functional, cell-based
[1] = molecular target: Mu-type opioid receptor (Mus musculus) (UniProt P42866); experiment: (§1) Partial agonist activity at SNAP-tagged mouse MOR transfected in HEK293T cells coexpressing wild type Galpha-i2, venus-tagged Gbeta-1 (156 to 239 residues), venus-tagged Ggamma2 (1 to 155 residues) and Rluc8 fused masGRK3ct assessed as Galpha-i2 activation at 10 uM using coelenterazine as substrate incubated for 40 mins by BRET based GPA assay relative to control; details: filed as partial agonist
[2] = molecular target: Mu-type opioid receptor (Mus musculus, UniProt P42866); experiment: as §1, with “activation” for “activation at 10 uM”, “assay” for “assay relative to control”
[3] = molecular target: Mu-type opioid receptor (Mus musculus) (UniProt P42866); experiment: Partial agonist activity at Rluc8 fused mouse MOR transfected in HEK293T cells coexpressing wild type GRK2 assessed as arrestin-3 recruitment at 10 uM using coelenterazine as substrate incubated for 40 mins by BRET assay relative to control; details: for Emax: filed as partial agonist
In short: (§2)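 HEK293T cells transiently transfected with BRET sensors (DNA:PEI 1:6), plated into poly-D-lysine plates and assayed 48 h post-transfection. Cells washed and held in D-PBS 30 min at 37 °C. Coelenterazine h 5 μM final; ligands 10 μM to 0.01 nM. Venus/Rluc emission (535/475 nm) read every minute for 10 min, with a further read at 30 min, at 37 °C. […] At least three independent experiments in duplicate.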

[4] = molecular target: Mu-type opioid receptor (Mus musculus) (UniProt P42866); experiment: Agonist activity at Rluc8 fused mouse MOR transfected in HEK293T cells assessed as Nb33 recruitment at 10 uM using coelenterazine as substrate incubated for 40 mins by BRET assay relative to control; in short: as §2
[5] = molecular target: Mu-type opioid receptor (Mus musculus) (UniProt P42866); experiment: Partial agonist activity at Rluc8 fused mouse MOR transfected in HEK293T cells coexpressing wild type GRK2 assessed as arrestin-3 recruitment using coelenterazine as substrate incubated for 40 mins by BRET assay
[6] = molecular target: Mu-type opioid receptor (Mus musculus) (UniProt P42866); experiment: Partial agonist activity at Rluc8 fused mouse MOR transfected in HEK293T cells assessed as Nb33 recruitment at 10 uM using coelenterazine as substrate incubated for 40 mins by BRET assay relative to control
[7] = molecular target: Mu-type opioid receptor (Mus musculus) (UniProt P42866); experiment: Partial agonist activity at Rluc8 fused mouse MOR transfected in HEK293T cells assessed as Nb33 recruitment using coelenterazine as substrate incubated for 40 mins by BRET assay
[8] = molecular target: Mu-type opioid receptor (Mus musculus) (UniProt P42866); experiment: Agonist activity at Rluc8 fused mouse MOR transfected in HEK293T cells coexpressing wild type GRK2 assessed as arrestin-3 recruitment at 10 uM using coelenterazine as substrate incubated for 40 mins by BRET assay relative to control; in short: as §2
[9] = molecular target: Mu-type opioid receptor (Mus musculus) (UniProt P42866); experiment: as §1, with “Agonist” for “Partial agonist”; details: filed as agonist; in short: as §2

SMILES | Emax [1] | Activity [3] | Emax [6] | other results
CCC1(CC)CC(OCCCN2CCN(c3cccc(C(F)(F)F)n3)CC2)(c2ccccn2)CCO1 (stereo not given) | 100% | 33.5% | – | pEC50 [2]: 6.22; Activity [4]: 15.5%
CN(C)C(=O)C(CCN1C[C@H](O)C[C@H]1C(=O)NCCCCN1CCN(c2cccc(C(F)(F)F)n2)CC1)(c1ccccc1)c1ccccc1 | 76.7% | inactive | inactive | Activity [5]: inactive; Activity [7]: inactive
Clc1cccc(N2CCN(CCC3(c4ccccn4)CCOCC3)CC2)c1Cl | – | – | – | Emax [8]: 25.1%; Emax [4]: 25.7%; Emax [9]: 107%
COc1ccccc1[C@@H]1C[C@H]1NCCC(C(=O)N(C)C)(c1ccccc1)c1ccccc1 (relative stereo) | 100% | – | – | Emax [3]: 47.5%
CCCN(CCC(C(=O)N(C)C)(c1ccccc1)c1ccccc1)[C@@H]1C[C@H]1c1ccc(Cl)cc1 (relative stereo) | 110% | – | – | Emax [3]: 43.7%
CN(C)C(=O)C(CCN[C@@H]1C[C@H]1c1ccc(Cl)cc1)(c1ccccc1)c1ccccc1 (relative stereo) | 106% | – | – | Activity ([6]; filed as partial agonist): 18.6%
CN(C)C(=O)C(CCN1C[C@H](F)C[C@H]1C(=O)NCCCCN1CCN(c2cccc(C(F)(F)F)n2)CC1)(c1ccccc1)c1ccccc1 | 77.6% | – | 15% | –
CN(C)C(=O)C(CCN1C[C@H](O)C[C@H]1C(=O)NCCCCN1CCN(c2cccc(Cl)c2Cl)CC1)(c1ccccc1)c1ccccc1 | 63.7% | inactive | inactive | Activity [5]: inactive; Activity [7]: inactive
